Experimental findings from patent US5064862A, “Anticonvulsant method and formulations” (priority 1990, dated 1991) are described below.

The nature of this series: in vivo. Conditions: mouse, ip.

For the compound `O=C1NC(=O)C(c2ccccc2)(c2ccccc2)N1` [Phenytoin], the LD50 came to 23 mg/kg.
